Data as given in patent US10434101B2, “Heterocyclic compounds and uses thereof” (Celgene CAR LLC, priority 2010, dated 2019).

Key:
EGFR T790M/L858R [1] = molecular target: T1, EGFR T790M/L858R (Homo sapiens (Human), UniProt P00533, L858R/T790M); assay: Omnia assay, potency against EGFR (T790M/L858R) active enzyme; assay type: biochemical
EGFR T790M/L858R [2] = molecular target: T1, EGFR T790M/L858R; conditions: 10-fold excess of compound to protein

C=CC(=O)Nc1cccc(Oc2nc(Nc3ccc(N4CCN(C(C)=O)CC4)cc3OC)ncc2C(F)(F)F)c1 [Compound I-10, N-(3-(2-(4-(4-acetylpiperazin-1-yl)-2-methoxyphenylamino)-5-(trifluoromethyl)pyrimidin-4-yloxy)phenyl)acrylamide]
Ratio WT/mutant (EGFR T790M/L858R [1]): >1

C=CC(=O)Nc1cccc(Nc2nc(Nc3ccc(N4CCOCC4)cc3OC)ncc2Cl)c1 [Compound I-15, N-(3-(5-chloro-2-(2-methoxy-4-morpholinophenylamino)pyrimidin-4-ylamino)phenyl)acrylamide]
IC50 (EGFR T790M/L858R [1]; [EGFR-T790M/L858R]=2.5 nM, [ATP]=20 uM, 30 min pre-incubation): 1 to 10 nM

C=CC(=O)Nc1cccc(Oc2nc(Nc3ccc(N4CCOCC4)cc3OC)ncc2C(F)(F)F)c1 [Compound I-1, N-(3-(2-(2-methoxy-4-morpholinophenylamino)-5-(trifluoromethyl)pyrimidin-4-yloxy)phenyl)acrylamide]
covalent modification of EGFR T790M/L858R by whole protein MS (EGFR T790M/L858R [2]): covalently modify the protein

C=CC(=O)Nc1cccc(Oc2nc(Nc3ccc(N4CCN(C(=O)CO)CC4)cc3OC)ncc2Cl)c1 [Compound I-3, N-(3-(5-chloro-2-(4-(4-(2-hydroxyacetyl)piperazin-1-yl)-2-methoxyphenylamino)pyrimidin-4-yloxy)phenyl)acrylamide]
covalent modification of EGFR T790M/L858R by whole protein MS (EGFR T790M/L858R [2]): covalently modify the protein
